# S100A4 inh HTS: S100A4-myosin IIA interaction inhibition | 360,000 compounds, 0.14% hits | S100A4/TAMRA-MyoIIA peptide fluorescence polarization | inhibition, % at 10.7 µM;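 active = mean inhibition of at least 70% across replicates, with every replicate also reaching that level; inconclusive = mean inhibition reaches 70% but some replicates fall short; inactive = mean inhibition below 70%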
#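 Material: human S100A4 monomer with TAMRA-labelled myosin IIA peptide; buffer or medium: HEPES pH 7.2 with CaCl2, KCl, NaCl, DTT, Triton; compound dosing: one concentration per compound; schedule: 5 min incubation before reading; benchmarks: neutral control DMSO, positive control TFP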
# ERp5 block: blocks human ERp5 reductase activity on insulin | Q15084 | ERp5 insulin aggregation, absorbance 650 nm, 90 min | inhibition, % at 9.99 µM | 350,000 compounds, 0.05% hits | AID 651711;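 active = mean replicate inhibition above about 25%, with every replicate also reaching it, limit read from the data, passing the limit was not always enough; inconclusive = only one of those two criteria met; inactive = neither criterion met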
# SIRT5 inh: blocks human SIRT5 desuccinylation of peptide; Q9NXA8; Purified SirT5, succinyl-peptide AMC, trypsin-coupled fluorescence; inhibition, % at 15 µM; 330,000 compounds, 1.1% hits; AID 652115; in the data active = inhibition above about 15%; inconclusive = no clear call, values can overlap the other calls
# FGF22 binding: binders of recombinant human FGF22 by thermal shift. activity (Tm shift, normalised), % at 9.99 µM. Q9HCT0. SYPRO orange fluorescence; percent of sucrose octasulfate shift, DMSO zero. 340,000 compounds, 1.5% hits;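 active = mean Tm shift, scaled 0 neutral to 100 positive control, at about 1.3% or above, every replicate too, limit read from the data; inconclusive = no clear call, values can overlap the other calls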
# Yeast UUG start: modulators of yeast start codon fidelity, primary screen, whole organism, S. cerevisiae, single point, plate reader | activity score, % at 18.7 µM | 350,000 tested, 0.13% active | S. cerevisiae UUG-firefly luciferase reporter, luminescence/redox ratio;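 active means replicate mean at a twofold rise or more, about +100% in these data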;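 further: firefly luciferase made from a UUG start codon reports start codon fidelity; reporter light over untreated wells divided by growth signal over untreated wells; some hits fall short of that in this replicate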
# PDI turbidity: inhibitors of human protein disulfide isomerase. P07237. PDI insulin aggregation turbidity, A650, 90 min. inhibition, % at 10 µM. 350,000 compounds, 0.052% hits. AID 588391;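 active = mean inhibition across replicates of 30% or more, whatever share of single replicates reach that level; inconclusive = mean inhibition below 30% while every single replicate reaches 30%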
# The depositor's hits bear a star; ? = inconclusive; nt = not tested or not shown. Compounds with a hit are over-represented: about 2.2% of the library has one in this group of screens.
1. O=C(c1ccc(C(F)(F)F)cc1)C1CCCN(C(=O)CN2CCCC2=O)C1 (stereo unspecified)
2. O=C(c1ccc(C(F)(F)F)cc1)C1CCCN(C(=O)CN2C(=O)CSC2=O)C1 (stereo unspecified)
3. C/C=C/c1ccc2c(c1)O[C@@H](CN(C)Cc1ccccc1F)[C@H](C)CN([C@H](C)CO)S2(=O)=O
4. C/C=C/c1ccc2c(c1)O[C@H](CN(C)Cc1ccccc1F)[C@H](C)CN([C@H](C)CO)S2(=O)=O
5. C/C=C/c1ccc2c(c1)O[C@@H](CN(C)Cc1ccc(F)cc1)[C@H](C)CN([C@H](C)CO)S2(=O)=O
Assay by compound	1	2	3	4	5
S100A4 inh HTS	-7	12	5	-8	-1
ERp5 block	4	1	-1	-7	0
SIRT5 inh	-2	-1	?	13*	16*
FGF22 binding	43*	0	0	0	0
Yeast UUG start	-20	-18	0	-1	7
PDI turbidity	2	-5	nt	nt	nt

6. Cc1ccccc1N1CC(C(=O)O)CC1=O (stereo unspecified)
7. O=[N+]([O-])c1ccc(N=Nc2ccc(O)cc2O)cc1
8. O=S(=O)(O)c1cc(Cl)cc(N=Nc2ccc(O)cc2O)c1O
9. Cc1ccc(N(CC(=O)N2CCOCC2)S(C)(=O)=O)cc1Cl
10. O=C(CN(c1ccc2c(c1)OCCO2)S(=O)(=O)c1ccccc1)N1CCN(Cc2ccccc2)CC1
Assay by compound	6	7	8	9	10
S100A4 inh HTS	2	nt	13	2	0
ERp5 block	2	nt	-5	-7	5
SIRT5 inh	29*	nt	39*	16*	1
FGF22 binding	0	nt	nt	0	43*
Yeast UUG start	-5	-3	nt	-16	3
PDI turbidity	3	0	3	-2	14

# 2 entries from above, with bars between the fields:
no. | smiles | S100A4 inh HTS | ERp5 block | SIRT5 inh | FGF22 binding | Yeast UUG start | PDI turbidity
9 | Cc1ccc(N(CC(=O)N2CCOCC2)S(C)(=O)=O)cc1Cl | 2 | -7 | 16* | 0 | -16 | -2
10 | O=C(CN(c1ccc2c(c1)OCCO2)S(=O)(=O)c1ccccc1)N1CCN(Cc2ccccc2)CC1 | 0 | 5 | 1 | 43* | 3 | 14

# The listing continues:
11. CS(=O)(=O)N(CC(=O)N1CCN(Cc2ccccc2)CC1)c1cccc(F)c1
12. NC(=O)C1CCN(C(=O)CN(c2ccc3c(c2)OCCO3)S(=O)(=O)c2ccccc2)CC1
13. Cc1cccc(Nc2nc(N)nc(-c3oc4ccccc4c3C)n2)c1
14. CCC(=O)Nc1ccc2c(c1)OC[C@@H](C)N(C(=O)C1CC1)C[C@@H](C)[C@H](OC)CN(C)C2=O
15. CCN(CC)c1ccc(/C=C(\C#N)C(N)=S)cc1
Assay by compound	11	12	13	14	15
S100A4 inh HTS	-3	-13	-5	-13	-8
ERp5 block	1	-1	7	3	4
SIRT5 inh	19*	-3	-10	-3	1
FGF22 binding	0	0	39*	0	0
Yeast UUG start	6	nt	0	-6	nt
PDI turbidity	-3	-2	-3	nt	5

16. CCN(CC)c1ccc(/C=C(\C#N)C(N)=O)cc1
17. CCOC(=O)CCc1c(C)n[nH]c1C
18. CCOc1ccccc1OCCCCCc1c(C)n[nH]c1C
19. COc1ccc2c3c([nH]c2c1)[C@@H](CO)N(Cc1nccs1)CC31CCN(Cc2nccs2)CC1
20. Cc1cc(-c2cc(C)c(N)cc2C)c(C)cc1N
Assay by compound	16	17	18	19	20
S100A4 inh HTS	9	-7	nt	nt	-2
ERp5 block	2	3	nt	nt	-3
SIRT5 inh	6	-1	nt	nt	19*
FGF22 binding	43*	43*	nt	0	0
Yeast UUG start	nt	nt	-7	nt	-12
PDI turbidity	1	-6	22	nt	-9

21. O=C1c2ccccc2C(c2nnnn2Cc2ccccc2)N1Cc1ccco1 (stereo unspecified)
22. CSCCC(NC(=O)c1ccccc1Cl)C(=O)NNC(=O)c1csc(N2CCOCC2)n1 (stereo unspecified)
23. CSCCC(NS(=O)(=O)c1ccccc1F)C(=O)NNC(=O)c1csc(N2CCOCC2)n1 (stereo unspecified)
24. CCN1CCN(C(=O)C(C)Nc2ccc(OC)cc2OC)CC1 (stereo unspecified)
25. CCN1CCN(C(=S)c2ccc(OC)cc2)CC1
Assay by compound	21	22	23	24	25
S100A4 inh HTS	-5	-2	0	-11	-18
ERp5 block	1	0	-4	1	2
SIRT5 inh	15*	0	17*	15*	1
FGF22 binding	0	0	0	0	43*
Yeast UUG start	nt	-13	4	-4	1
PDI turbidity	nt	-4	-2	-2	1

# Structures listed so far containing a cyano group:
15. CCN(CC)c1ccc(/C=C(\C#N)C(N)=S)cc1
16. CCN(CC)c1ccc(/C=C(\C#N)C(N)=O)cc1
Assay by compound	15	16
S100A4 inh HTS	-8	9
ERp5 block	4	2
SIRT5 inh	1	6
FGF22 binding	0	43*
Yeast UUG start	nt	nt
PDI turbidity	5	1

# Other entries follow:
26. Cc1sc(N(C(=O)CCc2ccccc2)c2ccc(C(=O)O)cc2)nc1-c1ccccc1
27. CCC(=O)N(c1ccc(C(=O)O)cc1)c1nc(-c2ccc(OC)cc2)c(C)s1
28. Cc1c(CCC(=O)N[C@@H](CC(C)C)C(=O)O)c(=O)oc2cc3oc4c(c3cc12)CCCC4
29. C[C@H](CO)N1C[C@H](C)[C@H](CN(C)Cc2ccc(C(F)(F)F)cc2)OCCCC[C@H](C)Oc2ccc(NC(=O)C3CCCCC3)cc2C1=O
30. Cc1nc(Cc2nnc(SCC(=O)N3c4ccccc4NC(=O)C3(C)C)o2)cs1
Assay by compound	26	27	28	29	30
S100A4 inh HTS	-2	0	40	nt	-1
ERp5 block	-112	1	-1	nt	-1
SIRT5 inh	1	nt	0	nt	nt
FGF22 binding	1	44*	-1	0	43*
Yeast UUG start	nt	nt	-10	10	-11
PDI turbidity	-11	2	38*	nt	-3

31. COc1ccc2c3c([nH]c2c1)[C@@H](CO)N(CC1CC1)CC31CN(C(=O)c2cccc(F)c2)C1
32. COc1ccccc1C1CC(=O)Oc2cc(C)c(Br)c(C)c21 (stereo unspecified)
33. COc1ccccc1C1CC(=O)Oc2cc(C)c(Cl)c(C)c21 (stereo unspecified)
34. Cc1ccc(C2=C/C(=C/c3cccnc3)C(=O)O2)c(C)c1
35. O=C1OC(c2ccc(Cl)cc2)=C/C1=C/c1cccnc1
Assay by compound	31	32	33	34	35
S100A4 inh HTS	nt	-6	0	1	-2
ERp5 block	nt	-4	-2	-7	0
SIRT5 inh	nt	35*	0	-2	0
FGF22 binding	0	0	0	44*	0
Yeast UUG start	nt	-10	-23	nt	-10
PDI turbidity	nt	-3	-15	5	-2

36. CN1CCN(C(=O)C[C@@H]2CC[C@H](NC(=O)Cc3ccccn3)[C@@H](CO)O2)CC1
37. Cc1ccc(C(C)C)c(OCC(=O)N/N=C/C2CCCCC2)c1
38. Cc1ccc(C(C)C)c(OCC(=O)NN=C2CCCC2)c1
39. C=CCn1c(SCC(=O)c2ccc(O)c(O)c2)nnc1-c1ccc(C)cc1
40. O=c1oc(CCO)cc2ccc(C#Cc3ccsc3)cc12
Assay by compound	36	37	38	39	40
S100A4 inh HTS	-16	7	-11	4	-3
ERp5 block	-5	5	-1	3	2
SIRT5 inh	4	-2	-11	44*	17*
FGF22 binding	0	43*	0	0	0
Yeast UUG start	-6	nt	nt	-20	-12
PDI turbidity	nt	3	0	-1	1

41. CCn1ccnc1CN(C)C(=O)CC1C(=O)NCCN1Cc1c(F)cccc1Cl (stereo unspecified)
42. CN(Cc1ccon1)C(=O)CC1C(=O)NCCN1Cc1ccccc1C(F)(F)F (stereo unspecified)
43. Cc1cnc(CNC(=O)CC2C(=O)NCCN2Cc2ccccc2C(F)(F)F)cn1 (stereo unspecified)
44. CN(C(=O)CC1C(=O)NCCN1Cc1ccccc1F)C1CCOCC1 (stereo unspecified)
45. CN(C(=O)CC1C(=O)NCCN1Cc1ccccc1C(F)(F)F)C1CCOCC1 (stereo unspecified)
Assay by compound	41	42	43	44	45
S100A4 inh HTS	-1	4	0	-3	-6
ERp5 block	-2	-3	-7	-3	5
SIRT5 inh	19*	-6	0	-6	32*
FGF22 binding	1	0	0	0	0
Yeast UUG start	-13	-7	-21	-8	-12
PDI turbidity	-3	13	0	6	-6
